Test results: article PMC5658604, “An ArsR/SmtB family member regulates arsenic resistance genes unusually arranged in Thermus thermophilus HB27” (2017)

Protein sequences, listed by entry. Tags and fused reporters are not part of them. Residues count along the entry.
UniProt Q72KG0, 1-123 limits assumed: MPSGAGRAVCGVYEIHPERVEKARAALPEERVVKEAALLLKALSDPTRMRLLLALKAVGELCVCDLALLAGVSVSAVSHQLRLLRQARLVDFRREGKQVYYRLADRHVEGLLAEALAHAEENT

Target: TtSmtB (Thermus thermophilus, UniProt Q72KG0)
Assay: far-UV circular dichroism titration at […] nm
Details: read-out: apparent K d; 25 mM Na-phosphate pH 7.0, about 3 μM protein; one-binding-site fit; effector that releases DNA

Row | Structure (SMILES) | Kd
1 | O=[As](O)(O)O | 60 µM
2 | O[As](O)O | 250 µM
